Laboratory results: PMC5500575 (Scientific Reports, 2017)
Where two headings read alike, the source gives them in different places.

By UniProt entry, the sequences of proteins in these tests, tags left out.
UniProt Q9Y5N1, whole entry: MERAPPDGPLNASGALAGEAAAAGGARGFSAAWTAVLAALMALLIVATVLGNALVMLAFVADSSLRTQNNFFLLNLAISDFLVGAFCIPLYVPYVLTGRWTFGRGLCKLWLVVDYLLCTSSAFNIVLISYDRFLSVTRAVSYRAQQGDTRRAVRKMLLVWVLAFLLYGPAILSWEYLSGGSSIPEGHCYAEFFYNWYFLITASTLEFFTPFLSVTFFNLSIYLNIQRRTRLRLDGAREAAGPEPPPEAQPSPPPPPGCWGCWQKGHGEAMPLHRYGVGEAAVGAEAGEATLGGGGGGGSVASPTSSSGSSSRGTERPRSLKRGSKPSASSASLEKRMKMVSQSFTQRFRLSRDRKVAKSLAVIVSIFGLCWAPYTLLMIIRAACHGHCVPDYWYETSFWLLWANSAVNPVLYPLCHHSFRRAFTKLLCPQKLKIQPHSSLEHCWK

Columns and labels:
[1] = biological target: human histamine H3 receptor (Homo sapiens, UniProt Q9Y5N1); test: IP-One (HTRF IP1 accumulation) assay, H3 receptor co-expressed with chimeric Gqi5 in tsA201 cells; format: cell-based; settings: for Result of second pharmacological assaying (analogues): 2 µM compound
human H3 receptor = human H3 receptor (Homo sapiens, UniProt Q9Y5N1); test: [3H]N-α-methylhistamine radioligand competition binding assay; settings: for Ki / Affinity (pKi): 0.3 nM [3H]N-α-methylhistamine; for Ki: Cheng-Prusoff with Kd […]; for Affinity (pKi): ± SEM
[2] = antagonist mode, EC80 histamine
[3] = antagonist mode, in the presence of EC80 of histamine

Structure (SMILES)	Result of second pharmacological assaying (analogues) [1, 2]	IC50 [1, 3]	pIC50 ± SEM [1, 3]	Ki (human H3 receptor)	Affinity (pKi) (human H3 receptor)	Inhibition relative to the basal level ([1]; antagonist mode)	Result of first pharmacological assaying (pharmacophore screening hits) ([1]; antagonist mode, 20 µM compound, EC80 histamine)	Inverse agonistic activity ([1]; no histamine added)	pIC50 ± SEM, inverse agonism activity ([1]; inverse agonism, no histamine added)	IC50 ([1]; read-out: IC50, inverse agonism activity, inverse agonism, no histamine added)	Competition with [3H]N-α-methylhistamine binding (in words) (human H3 receptor; 0.3 nM radioligand, NSB defined with 10 µM histamine)
CCN1CCC(N2CCc3[nH]c4ccc(OC)cc4c3C2)CC1	new antagonists	5200 nM	5.3 ± 0.37	1590 nM	5.80 ± 0.14						
Cc1cccc2cc(CN(C)CCN(C)C)c(N3CCNC(=O)C3)nc12		660 nM	6.2 ± 0.13	1970 nM	5.71 ± 0.17	inhibition below the basal level	antagonist hits	not			
Cc1ccc2c(c1)c1c3n2CCN(CC(O)CNCCCN(C)C)C3CCC1 (centres unmarked)	new antagonists	2700 nM	5.6 ± 0.14	1590 nM	5.80 ± 0.05	inhibition below the basal level			5.4 ± 0.068	4200 nM	
Cc1ccc(C2(O)CCN(c3nc(C)nc4ccsc34)CC2)nc1	new antagonists	6600 nM	5.2 ± 0.37	6070 nM	5.22 ± 0.09						unable to lower the binding of [^3H]N-α-methylhistamine to non-specific binding levels
